System: Caco-2 cells
Assay type: in vitro ADME, human
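Further: Caco-2 monolayers used 21 days after seeding in HBSS-HEPES buffer with 1% DMSO, donor and acceptor levels quantified by LC-MS/MS, TEER checked before and after.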

- Caco-2 permeability apical to basolateral (A-B): 0.76 ×10⁻⁶ cm/s
- Caco-2 permeability basolateral to apical (B-A): 12.4 ×10⁻⁶ cm/s
SMILES: CC(C)C[C@@H]1NC(=O)[C@H](Cc2ccc(O)cc2)NC(=O)[C@H]2CCCN2C(=O)[C@H](CC(C)C)NC(=O)[C@H](CC(C)C)NC(=O)[C@@H](CC(C)C)NC1=O [compound 10, cyclo(-D-Leu^1-Leu-Leu-D-Pro-Tyr-Leu^6-)]

Source: paper PMC10539501 (Nature Communications, 2023)
